The target in one assay is T1, 5-human HT1A receptor (Homo sapiens, UniProt P08908).
T1 construct: expressed in transfected cells; host or cells: HeLa cells
Description: Test on adenylate cyclase in He-La cells (inhibition of forskolin stimulation). It is filed as cell-based. The text has this:
The functional character of the new compounds was initially determined by studying their effect on adenylate cyclase in He—La cells transfected with the […], measuring their inhibiting effect on the stimulation of the enzyme induced by forskolin (Table 3 below).

Chains of the proteins cited; added tags and fusions are not shown. Lines headed by an entry give the natural chain unless they say otherwise; changes in a name come on top. Residues count along the entry.
UniProt P08908, whole entry: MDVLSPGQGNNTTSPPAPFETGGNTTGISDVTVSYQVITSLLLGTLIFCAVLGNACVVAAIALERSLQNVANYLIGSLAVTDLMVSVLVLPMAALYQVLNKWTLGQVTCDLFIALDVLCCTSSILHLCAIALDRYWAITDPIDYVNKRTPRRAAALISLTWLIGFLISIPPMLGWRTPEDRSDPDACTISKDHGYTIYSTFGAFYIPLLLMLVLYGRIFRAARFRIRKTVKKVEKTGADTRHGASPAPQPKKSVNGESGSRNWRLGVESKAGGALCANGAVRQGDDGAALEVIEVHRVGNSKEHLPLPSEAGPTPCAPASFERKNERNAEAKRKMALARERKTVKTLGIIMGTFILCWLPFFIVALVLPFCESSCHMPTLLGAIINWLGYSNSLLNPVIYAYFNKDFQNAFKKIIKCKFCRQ
UniProt P35563, 24-483: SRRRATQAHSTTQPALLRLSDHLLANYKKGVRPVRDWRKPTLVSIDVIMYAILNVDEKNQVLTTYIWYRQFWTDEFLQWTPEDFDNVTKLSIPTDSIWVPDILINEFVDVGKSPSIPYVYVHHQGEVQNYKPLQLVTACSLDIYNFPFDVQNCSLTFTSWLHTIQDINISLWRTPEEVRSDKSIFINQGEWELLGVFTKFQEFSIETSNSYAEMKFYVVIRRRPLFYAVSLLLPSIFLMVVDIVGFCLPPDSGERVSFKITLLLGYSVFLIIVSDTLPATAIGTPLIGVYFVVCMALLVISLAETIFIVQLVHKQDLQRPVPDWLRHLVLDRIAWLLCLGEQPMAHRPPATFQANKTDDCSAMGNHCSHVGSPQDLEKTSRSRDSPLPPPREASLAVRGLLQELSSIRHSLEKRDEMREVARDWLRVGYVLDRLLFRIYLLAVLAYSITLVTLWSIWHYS
UniProt Q62758: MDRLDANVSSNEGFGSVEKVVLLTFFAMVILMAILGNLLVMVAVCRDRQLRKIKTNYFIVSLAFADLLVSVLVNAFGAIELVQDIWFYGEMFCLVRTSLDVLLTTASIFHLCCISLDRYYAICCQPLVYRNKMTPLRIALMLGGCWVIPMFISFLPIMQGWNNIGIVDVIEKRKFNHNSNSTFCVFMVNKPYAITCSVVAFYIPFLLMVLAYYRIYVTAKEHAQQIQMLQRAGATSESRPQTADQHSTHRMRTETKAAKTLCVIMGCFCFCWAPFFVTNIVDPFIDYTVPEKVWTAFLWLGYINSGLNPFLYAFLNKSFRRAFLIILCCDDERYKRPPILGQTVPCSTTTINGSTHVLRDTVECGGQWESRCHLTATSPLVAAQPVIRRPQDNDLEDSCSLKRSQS
UniProt P19327, whole entry: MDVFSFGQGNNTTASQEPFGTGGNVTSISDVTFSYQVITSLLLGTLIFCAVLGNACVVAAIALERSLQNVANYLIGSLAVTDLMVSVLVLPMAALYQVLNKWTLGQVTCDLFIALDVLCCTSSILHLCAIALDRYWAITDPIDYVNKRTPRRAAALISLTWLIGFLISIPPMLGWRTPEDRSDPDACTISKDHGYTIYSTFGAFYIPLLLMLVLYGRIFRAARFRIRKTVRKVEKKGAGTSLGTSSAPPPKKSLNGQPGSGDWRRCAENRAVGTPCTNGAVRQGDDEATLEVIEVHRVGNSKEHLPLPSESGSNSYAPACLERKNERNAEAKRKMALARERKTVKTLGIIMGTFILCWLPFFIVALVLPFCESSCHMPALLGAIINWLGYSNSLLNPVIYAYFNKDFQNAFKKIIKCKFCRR

The target of a further assay is T2, 5-HT3 receptors (Rattus norvegicus, UniProt P35563).
T2 construct: (c) 5-HT3 receptors, [^3H]LY 278584, rat cerebral cortex; from tissue; host or cells: rat cerebral cortex
Kind of assay: Radioligand displacement, 5-HT3 receptors, [3H]LY 278584. It is filed as binding.

The target in the next assay is T3, 5-HT4 receptors (Rattus norvegicus, UniProt Q62758).
T3 construct: (d) 5-HT4 receptors, [^3H]GR 113808, rat striatum; from tissue; host or cells: rat striatum
Kind of assay: Radioligand displacement, 5-HT4 receptors, [3H]GR 113808. Particulars: [3H]GR 113808, rat striatum; read-out: Ki ± E.E. 5-HT4. It is filed as binding.

Another assay deals with 5-HT1A (Rattus norvegicus, UniProt P19327). Description: Radioligand displacement, 5-HT1A receptors, [3H]-8-OH-DPAT. Also noted: (a) 5-HT1A receptors, [^3H]-8-OH-DPAT, rat cerebral cortex; from tissue; host or cells: rat cerebral cortex. It is filed as binding.

Take `O=C1C2CCCN2C(=O)N1CCCCNCC1CCc2ccccc2O1` (racemic) [Compound 1, (±)-2-[4-[(Chroman-2-yl)methylamine]butyl]-1,3-dioxoperhydropyrrolo[1,2-c]imidazol]: at 5-human HT1A receptor, the “% Maximum inhibition” value is recorded as 94.6% and the EC50 was 16.3 nM.
For `NCCc1c[nH]c2ccc(O)cc12` [Compound 5-HT, 5-hydroxytriptamine, reference compound], the figures for the Ki on 5-HT3 receptors, on 5-HT4 receptors and at 5-HT1A were 13.8 ± 2.4 nM, 53.8 ± 3.3 nM and 0.84 ± 0.27 nM, respectively.
